{"source": "patent US7098210B2", "about": "“2h-pyridazine-3-one derivatives, pharmaceutical compositions containing the same and a process for the preparation of the active ingredient” (Egis Gyógyszergyár Rt., priority 2001, dated 2006)", "key": {"male Wistar rats": {"test_system": "male Wistar rats", "assay": "Cataleptogenous effect (method of Morpurgo)", "assay_type": "in vivo, rat", "details": "minimum effective dosis inducing catalepsy", "source_text": "The cataleptogenous effect was studied according to the method of Morpurgo [Morpurgo, C., Arch. Int. Pharmacodyn., 137, 84 ([…])]. Male Wistar rats of 220 to 240 g body weight have been used for the examinations. The fore-feet of the rats were placed on a gum stopper, one by one, and it was observed how the animal tolerated the unusual posture. The normal (non-cataleptic) animal removes the foot from the stopper during the measuring time of 10 seconds. If the animal keeps the foot on the stopper during the measuring time, this stiff state accompanied by myotonia is evaluated as catalepsy."}, "[1]": {"test_system": "isolated right ventricular papillary muscle of the rabbit", "assay": "Cardiotoxic effect: effective refractory period (ERP) in vitro", "procedure": "The cardiotoxic effect was determined in isolated right ventricular papillary muscle of the rabbit in vitro.\nThe modified method of Hackett et al., 1990 was used (Hacket, A. M., Mc Donald S. J., P., Schweingruber, F. and Gartwaite, S. M.: Simple in vitro method to characterize antiarrhythmic agents J. Pharmacol. Methods 23, 107–116, 1990).\nThe effective refractory period (ERP) was measured in isolated right ventricular papillary muscle of the rabbit in vitro.\nThe contractions of papillary muscle preparations obtained from New Zealand rabbits weighing 2.5–3.2 kg were evaluated. The contractions (isometrically paced at 1 Hz) were recorded by 4-channel Hugo Sachs apparatus. The effects of the test compounds or references were measured in 1 μM concentration."}}}
{"smiles": "Cc1nc2n(c(=O)c1CCN1CCC(c3noc4cc(F)ccc34)CC1)CCCC2", "note": "[risperidone, 3-{2-[-4-(6-fluoro-1,2-benzisoxazole-3-yl)-piperidinyl]ethyl}-6,7,8,9-tetrahydro-2-methyl-4H-pyrido[1,2-a]pyrimidine-4-one, reference compound]", "values": [{"measurement": "MED in mg/kg po.", "setting": "male Wistar rats", "value": 1, "unit": "mg/kg"}, {"measurement": "cardiotoxic effect (significant prolongation of ERP)", "setting": "[1]; 1 μM concentration", "value": "considerable and significant cardiotoxic potential"}, {"measurement": "% change of ERP (1 μM)", "setting": "[1]; 1 μM, papillary muscle paced at 1 Hz, vs. baseline", "value": "34.8 ± 4.8", "unit": "%"}]}
